By UniProt entry, the sequences of proteins in these tests, tags left out. Residues count along the entry.
UniProt P01116, 1-188 isoform 2 G12C: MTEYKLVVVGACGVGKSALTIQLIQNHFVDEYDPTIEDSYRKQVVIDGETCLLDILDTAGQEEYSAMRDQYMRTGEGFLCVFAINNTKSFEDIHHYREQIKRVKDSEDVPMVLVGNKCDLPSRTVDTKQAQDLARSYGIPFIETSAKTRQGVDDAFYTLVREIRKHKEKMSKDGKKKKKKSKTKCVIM

In US20230174526A1, “BENZOTHIAZOLYL BIARYL COMPOUND, AND PREPARATION METHOD AND USE” (SHANGHAI RINGENE BIOPHARMA CO., LTD., priority 2020, published 2023):

Tests used:
[1] = target: KRAS^G12C/SOS1 (Homo sapiens, UniProt P01116, G12C); test: KRAS^G12C/SOS1 protein-protein interaction Binding assay (CisBio kit); conditions: read-out: IC50/nM, class symbols
[2] = Metabolic stability assay, human liver microsomes; conditions: human liver microsomes 0.5 mg/mL, 1 µM compound
Protocol: (§1) Metabolic stability assay: A warm incubation for metabolic stability was performed with a system of 150 µL of liver microsomes (final concentration 0.5 mg/mL) containing NADPH (final concentration 1 mM), 1 µM of the test compound and positive control midazolam or negative control atenolol, and the reaction was terminated with acetonitrile containing tinidazole at 0 min, 5 min, 10 min and 30 min, respectively. The reaction was vortexed for 10 min and centrifuged at 15000 rmp for 10 min, and 50 µL of supernatant was taken into the 96-well plate for sampling. The metabolic stability of the compound was calculated by measuring the relative reduction of the drugs.

[3] = In vivo pharmacokinetic parameter testing in mice; conditions: iv(1 mg/kg)
[4] = Metabolic stability assay, mouse liver microsomes; conditions: mouse liver microsomes 0.5 mg/mL, 1 µM compound
Protocol: as §1

[5] = Metabolic stability assay, monkey liver microsomes; conditions: monkey liver microsomes 0.5 mg/mL, 1 µM compound
Protocol: as §1

[6] = Metabolic stability assay, rat liver microsomes; conditions: rat liver microsomes 0.5 mg/mL, 1 µM compound
Protocol: as §1

[7] = tested on: MiaPaca-2 cells (pancreatic cancer); test: Proliferation test method 1 (2D, MTT), MiaPaca-2; conditions: read-out: IC50/nM proliferation inhibitory activity on MiaPaca-2 cells, 5-7 days

Structure (SMILES): C=CC(=O)N1CCN(c2ncnc3c(F)c(-c4ccc(F)c5sc(N)nc45)c(Cl)cc23)CC1 [Example 31, 7-(2-Amino-7-Fluorobenzo [d] Thiazol-4-yl)-6-Chloro-2-(3-(Dimethylamino)Azetidine-1-yl) -8-Fluoro-4-(4-(2-Fluoroacryloyl)Piperazin-1-yl)Quinolin-3-Cyano]
- IC50 [1]: 50 to 200 nM
- Liver microsomal stability (T½ /min) human [2]: 44 min
- Below the curve and AUC0-t [3]: 1.62 ± 0.188 µM·h
- Clearance rate Cl [3]: 21.16 ± 2.36 mL/min/kg
- Half-life T½ [3]: 36 min
- Liver microsomal stability (T½ /min) Mouse [4]: 32 min
- Liver microsomal stability (T½ /min) monkey [5]: 31 min
- Liver microsomal stability (T½ /min) Rat [6]: 31 min
- IC50 [7]: 2.6 nM
